Test results: US20230183354A1 (IMMIOS HOLDING B V, published 2023)

By UniProt entry, the sequences of proteins in these tests, tags left out. Residues count along the entry.
UniProt P38570, 19-1179 limits assumed, chain 1 of 2: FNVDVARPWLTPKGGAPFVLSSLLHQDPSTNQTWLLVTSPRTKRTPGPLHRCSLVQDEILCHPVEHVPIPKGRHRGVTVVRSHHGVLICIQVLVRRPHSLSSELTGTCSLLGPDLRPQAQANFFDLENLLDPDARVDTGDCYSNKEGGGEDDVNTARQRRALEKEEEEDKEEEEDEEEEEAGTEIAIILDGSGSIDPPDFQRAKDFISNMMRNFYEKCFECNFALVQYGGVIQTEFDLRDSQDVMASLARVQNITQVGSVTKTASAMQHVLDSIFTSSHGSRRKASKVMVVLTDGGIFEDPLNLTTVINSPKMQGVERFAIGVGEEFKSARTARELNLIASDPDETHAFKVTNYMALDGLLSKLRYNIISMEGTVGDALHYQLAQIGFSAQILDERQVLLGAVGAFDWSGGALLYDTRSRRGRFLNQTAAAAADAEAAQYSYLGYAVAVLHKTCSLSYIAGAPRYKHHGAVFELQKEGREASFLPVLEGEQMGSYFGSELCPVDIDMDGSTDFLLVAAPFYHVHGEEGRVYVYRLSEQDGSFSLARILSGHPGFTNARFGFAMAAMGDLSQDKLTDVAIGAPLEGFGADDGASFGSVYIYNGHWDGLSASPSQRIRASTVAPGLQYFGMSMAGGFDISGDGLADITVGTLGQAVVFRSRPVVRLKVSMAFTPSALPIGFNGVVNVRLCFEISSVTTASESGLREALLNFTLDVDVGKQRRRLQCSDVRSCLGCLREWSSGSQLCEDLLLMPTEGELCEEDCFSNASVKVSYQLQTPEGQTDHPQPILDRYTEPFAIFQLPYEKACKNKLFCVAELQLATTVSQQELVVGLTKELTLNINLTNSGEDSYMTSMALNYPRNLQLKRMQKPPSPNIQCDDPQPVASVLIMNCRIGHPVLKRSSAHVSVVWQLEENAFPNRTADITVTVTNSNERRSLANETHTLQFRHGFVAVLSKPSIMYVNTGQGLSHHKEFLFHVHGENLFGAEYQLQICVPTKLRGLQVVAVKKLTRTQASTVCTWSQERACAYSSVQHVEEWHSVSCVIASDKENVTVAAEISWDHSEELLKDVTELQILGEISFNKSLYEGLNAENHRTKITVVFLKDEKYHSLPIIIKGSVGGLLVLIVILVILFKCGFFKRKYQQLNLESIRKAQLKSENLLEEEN
UniProt P38570, 19-1124 limits assumed, chain 1 of 2: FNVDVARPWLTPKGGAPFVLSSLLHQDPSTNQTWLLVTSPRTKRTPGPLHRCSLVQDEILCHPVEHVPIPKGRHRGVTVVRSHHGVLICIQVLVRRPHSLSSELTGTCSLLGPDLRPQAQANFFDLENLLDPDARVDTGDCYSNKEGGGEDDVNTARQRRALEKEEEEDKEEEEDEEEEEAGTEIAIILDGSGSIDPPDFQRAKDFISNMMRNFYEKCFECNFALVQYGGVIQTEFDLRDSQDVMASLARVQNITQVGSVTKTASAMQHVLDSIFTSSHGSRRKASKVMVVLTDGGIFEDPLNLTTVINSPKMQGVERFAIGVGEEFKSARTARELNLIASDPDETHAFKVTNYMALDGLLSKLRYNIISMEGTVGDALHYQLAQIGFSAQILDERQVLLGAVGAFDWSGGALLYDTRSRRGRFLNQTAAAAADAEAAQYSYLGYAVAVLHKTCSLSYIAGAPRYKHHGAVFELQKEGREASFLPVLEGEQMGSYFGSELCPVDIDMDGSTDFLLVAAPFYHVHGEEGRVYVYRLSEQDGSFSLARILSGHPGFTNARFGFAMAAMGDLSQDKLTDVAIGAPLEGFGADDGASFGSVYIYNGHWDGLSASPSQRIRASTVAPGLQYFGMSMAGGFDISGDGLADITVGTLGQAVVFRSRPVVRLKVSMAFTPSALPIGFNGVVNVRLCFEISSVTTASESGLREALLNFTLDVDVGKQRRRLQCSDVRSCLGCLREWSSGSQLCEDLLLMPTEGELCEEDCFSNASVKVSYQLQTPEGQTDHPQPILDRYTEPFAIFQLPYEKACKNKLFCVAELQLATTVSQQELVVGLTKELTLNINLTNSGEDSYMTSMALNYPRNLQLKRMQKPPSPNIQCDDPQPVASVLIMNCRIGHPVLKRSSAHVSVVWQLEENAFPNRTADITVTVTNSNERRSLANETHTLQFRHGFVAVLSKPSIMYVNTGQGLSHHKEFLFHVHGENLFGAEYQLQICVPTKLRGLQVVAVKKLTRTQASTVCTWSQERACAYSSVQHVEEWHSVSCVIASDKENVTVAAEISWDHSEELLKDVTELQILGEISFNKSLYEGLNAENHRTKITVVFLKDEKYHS
human CD103 (integrin Alpha-E) / human integrin Beta-7 heterodimer on cells, UniProt P26010, 20-798 limits assumed, chain 2 of 2: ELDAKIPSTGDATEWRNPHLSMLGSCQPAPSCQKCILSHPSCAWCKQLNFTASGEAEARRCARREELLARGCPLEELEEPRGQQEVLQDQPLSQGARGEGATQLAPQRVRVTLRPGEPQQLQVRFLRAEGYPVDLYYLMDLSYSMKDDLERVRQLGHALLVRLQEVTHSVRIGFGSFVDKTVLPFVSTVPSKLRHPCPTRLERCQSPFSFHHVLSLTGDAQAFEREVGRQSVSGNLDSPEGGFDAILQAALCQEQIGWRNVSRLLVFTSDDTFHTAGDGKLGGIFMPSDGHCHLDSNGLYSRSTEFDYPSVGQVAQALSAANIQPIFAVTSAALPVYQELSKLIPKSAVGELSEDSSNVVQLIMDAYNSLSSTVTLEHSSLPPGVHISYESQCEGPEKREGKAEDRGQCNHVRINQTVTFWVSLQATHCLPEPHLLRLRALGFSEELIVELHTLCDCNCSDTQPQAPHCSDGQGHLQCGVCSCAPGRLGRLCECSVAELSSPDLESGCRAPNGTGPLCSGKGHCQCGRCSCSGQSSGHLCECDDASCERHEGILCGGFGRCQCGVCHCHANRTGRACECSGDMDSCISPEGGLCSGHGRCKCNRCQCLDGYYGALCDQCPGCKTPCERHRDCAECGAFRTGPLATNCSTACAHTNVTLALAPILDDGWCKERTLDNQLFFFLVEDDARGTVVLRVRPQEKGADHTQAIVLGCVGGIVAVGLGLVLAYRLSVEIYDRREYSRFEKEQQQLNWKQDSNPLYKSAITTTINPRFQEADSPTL
recombinant hCD103/hBeta7 Fc-protein (Acro-Biosystems), UniProt P26010, 20-723 limits assumed, chain 2 of 2: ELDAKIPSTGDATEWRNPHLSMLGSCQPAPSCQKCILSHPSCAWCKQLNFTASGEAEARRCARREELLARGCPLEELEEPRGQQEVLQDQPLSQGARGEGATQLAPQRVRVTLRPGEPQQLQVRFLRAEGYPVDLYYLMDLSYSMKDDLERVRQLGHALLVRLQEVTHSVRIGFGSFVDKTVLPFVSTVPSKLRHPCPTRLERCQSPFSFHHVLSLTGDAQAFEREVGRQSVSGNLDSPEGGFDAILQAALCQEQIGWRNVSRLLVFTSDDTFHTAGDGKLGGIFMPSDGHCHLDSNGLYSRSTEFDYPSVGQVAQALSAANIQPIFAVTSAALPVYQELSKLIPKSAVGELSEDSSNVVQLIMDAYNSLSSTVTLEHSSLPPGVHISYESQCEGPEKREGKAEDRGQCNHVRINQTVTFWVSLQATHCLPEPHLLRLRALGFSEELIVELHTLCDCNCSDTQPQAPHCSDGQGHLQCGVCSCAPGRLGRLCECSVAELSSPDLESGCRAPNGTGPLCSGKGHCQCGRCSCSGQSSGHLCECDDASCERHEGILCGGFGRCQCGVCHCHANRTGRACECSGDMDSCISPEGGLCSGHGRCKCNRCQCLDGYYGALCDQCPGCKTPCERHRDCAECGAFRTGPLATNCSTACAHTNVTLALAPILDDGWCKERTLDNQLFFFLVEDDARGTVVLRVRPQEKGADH

Key:
[1] = biological target: T1, human CD103 (integrin Alpha-E) / human integrin Beta-7 heterodimer on cells (human, UniProt P38570 19-1179; P26010 20-798); test: cell ELISA on CHO.K1-hCD103/beta7 cells, OD450-620, upper right panel
T1 construct: The same id is used for native CD103 on human CD103+CD8+ T cells (tumor digests, TGF-beta induced T cells); the assay field tells which cells; also called hCD103/hBeta7; CHO.K1-hCD103/hBeta7

[2] = biological target: T1, human CD103 (integrin Alpha-E) / human …; test: cell-based ELISA on CHO.K1-hCD103/hBeta7 cells, absorbance, lower left panel
Procedure: (§1) Wells were washed with PBS and incubated with Rabbit anti-Mouse/IgG-HRP (1:4000, Dako) or Fab specific Goat anti-Human/IgG-HRP (1:4000; Sigma Aldrich) for 1 h at 37° C. Next, wells were washed with PBS and TMB substrate (KPL) was added. The color reaction was stopped by adding 1M HCl solution and the absorbance was measured by a microplate reader (Thermo Scientific).

[3] = biological target: T1, human CD103 (integrin Alpha-E) / human …; test: cell-based ELISA on CHO.K1-hCD103/hBeta7 cells, Df-conjugated Fab, absorbance, lower left panel
Procedure: as §1

[4] = biological target: T1, human CD103 (integrin Alpha-E) / human …; test: flow cytometry, tumor digest OC433, AF647-conjugated Fab, direct read-out; Alexa647.mFab control Q2 2,58
Procedure: (§2) Additional aliquots were stained with relevant isotype controls or as fluorescence minus one controls (“FMO” controls are cells stained with all the fluorophores minus one fluorophore; the relevant isotype controls contain either a directly labeled unspecific isotype antibody or an unspecific isotype antibody combined with secondary detection reagent). Percentage binding of fluorescently labeled mAbs was determined using flow cytometry. Maximum binding was set at 100%. […] Data analysis was performed with FlowJo v10 (Tree Star) and surface receptor levels were expressed as mean fluorescent intensity (MFI).

[5] = biological target: T1, human CD103 (integrin Alpha-E) / human …; test: flow cytometry, tumor digest OC433, AF647-conjugated Fab, direct read-out; Alexa647.mFab control Q3 1,29
Procedure: as §2

[6] = biological target: T2, recombinant hCD103/hBeta7 Fc-protein (Acro-Biosystems) (human, UniProt P38570 19-1124; P26010 20-723, limits assumed); test: ELISA on coated recombinant human CD103/beta7 Fc-protein, OD450-620, lower right panel titled rhCD103/beta7
T2 construct: Bought protein with no catalog number and no construct limits printed; also called recombinant human CD103/Beta7; recombinant hCD103/beta7; not shown: fusion part of the bought 'Fc-protein'
Procedure: Protein coated 96-well plates were blocked in protein-free blocking buffer (Pierce) for 1.5 hour at 37° C. Plates were washed and incubated for 1 hour at RT with mAb/Fab in 0.1% Tween-20 in PBS. Next, plates were washed with PBS-T and incubated for 1 hour at RT with goat-anti-mouse IgG-HRP conjugate (Southern Biotech) for mAbs, and goat-anti-human Fab-HRP conjugate (Jackson Immuno Research) for the Fab fragments in 0.1% Tween-20 in PBS. […] Reactions were stopped with 0.5 M H2SO4 and absorbances were read at 450 and 610 nm.

[7] = biological target: T1, human CD103 (integrin Alpha-E) / human …; test: flow cytometry, tumor digest OC433, non-labeled Fab with secondary anti-Fab reagent (APC); hFab control Q2 4,64, secondary antibody alone Q2 4,65
Procedure: as §2

[8] = biological target: T1, human CD103 (integrin Alpha-E) / human …; test: flow cytometry, tumor digest OC433, non-labeled Fab with secondary anti-Fab reagent (APC); hFab control Q3 3,71, secondary antibody alone Q3 2,44
Procedure: as §2

[9] = biological target: T1, human CD103 (integrin Alpha-E) / human …; test: cell ELISA on CHO.K1-humanCD103/beta7 cells, abs 450-610

B1: Fab.hCD103.01.C1 (Fab, V domains shown)
VH: EVQLQESGPSLVKPSQTLSLTCSVTGDSITSGYWNWIRKFPGNKLEYMGYITYSGSTYYNPSLKSRISITRDTSKNQYYLQLNSVTTEDTATYYCTRHYYGSDAMDYWGQGTSVTVSS
VL: DIVMTQSHKFMSTSVGDRVSITCKASQDVSIAVAWYQQRPGQSPKLLIYSASYRYTGVPDRFTGSGSGTDFTFTISSVQAEDLAVYYCQQHYSTPWTFGGGTKLEIKR
- EC50 (read off the curve) [1]: ~0.01 mg/L
- EC50 (read off the curve) [2]: ~0.09 mg/L
- EC50 (read off the curve) [3]: ~0.09 mg/L
- % of cells in Q2 (CD8+ CD103+) [4]: 12.4%
- % of cells in Q3 (CD8- CD103+) [5]: 3.83%
- EC50 (read off the curve) [6]: ~0.006 mg/L
- % of cells in Q2 (CD8+ CD103+) [7]: 12.3%
- % of cells in Q3 (CD8- CD103+) [8]: 5.75%

B2: Fab.hCD103.05.C1 (Fab, V domains shown)
VH: EVQLQQSGPELEKPGASAKISCKASGYSFTGYNMNWVKQSNGKSLEWIGNIDPYYGGTSYNQKFKGKATLTVDKSSSTAYMQLKSLTSEDSAVYYCARSFYGYDAGSPYNYAMDYWGQGTPVTVSP
VL: DIVMTQSHKFMSTSVGDRVSITCKASQDVGTFVAWYQQKPGQSPKLLIYWASTRHTGVPDRFTGSGSGTDFTLTISNVQSEDLADYFCHQYSSYPYTFGGGTQLEIKR
- EC50 (read off the curve) [1]: ~0.1 mg/L
- % of cells in Q2 (CD8+ CD103+) [4]: 12%
- % of cells in Q3 (CD8- CD103+) [5]: 6.59%
- EC50 (read off the curve) [6]: ~0.05 mg/L
- % of cells in Q2 (CD8+ CD103+) [7]: 12.5%
- % of cells in Q3 (CD8- CD103+) [8]: 4.57%

B3: Fab.hCD103.06.C1 (Fab, V domains shown)
VH: QVQLQQPGSELVRPGASVKLSCKASGYTFTSYWMHWVKQRHGQGLEWIGNIYPGSGSTNYDEKFKSKGTLTVDTSSSTAYMHLSSLTSEDSAVYYCTRGVYDNPYYFDYWGQGTTLTVSS
VL: DIQMTQSSSNLSVSLGGRVTITCKASDHINNWLAWYQQKPGNAPRVLISGATSLETGVPSRFSGSGSGKDYTLSITSLQTEDVATYYCQQYWSIPLTFGAGTKLELKR
- % of cells in Q2 (CD8+ CD103+) [4]: 4.51%
- % of cells in Q3 (CD8- CD103+) [5]: 0.21%
- % of cells in Q2 (CD8+ CD103+) [7]: 8.12%
- % of cells in Q3 (CD8- CD103+) [8]: 2.94%

B4: hCD103.05A (antibody, mouse IgG1, V domains shown)
VH: EVQLQQSGPELEKPGASAKISCKASGYSFTGYNMNWVKQSNGKSLEWIGNIDPYYGGTSYNQKFKGKATLTVDKSSSTAYMQLKSLTSEDSAVYYCARSFYGYDAGSPYNYAMDYWGQGTPVTVSP
VL: DIVMTQSHKFMSTSVGDRVSITCKASQDVGTFVAWYQQKPGQSPKLLIYWASTRHTGVPDRFTGSGSGTDFTLTISNVQSEDLADYFCHQYSSYPYTFGGGTQLEIK
notes: Also tested labelled with AF647, conjugated with Df and labelled with 89Zr; these are written under this molecule; also called clone 05A; hCD103.05 mAb
- EC50 (read off the curve) [9]: ~0.01 mg/L
